Assay results: patent US20050203086A1, “Methods of treatment using an EP2 selective receptor agonist” (Pfizer Inc., priority 2004, published 2005)

Protein sequences, listed by entry. Tags and fused reporters are not part of them. Lines headed by an entry give the natural chain unless they say otherwise; changes in a name come on top.
UniProt P43116: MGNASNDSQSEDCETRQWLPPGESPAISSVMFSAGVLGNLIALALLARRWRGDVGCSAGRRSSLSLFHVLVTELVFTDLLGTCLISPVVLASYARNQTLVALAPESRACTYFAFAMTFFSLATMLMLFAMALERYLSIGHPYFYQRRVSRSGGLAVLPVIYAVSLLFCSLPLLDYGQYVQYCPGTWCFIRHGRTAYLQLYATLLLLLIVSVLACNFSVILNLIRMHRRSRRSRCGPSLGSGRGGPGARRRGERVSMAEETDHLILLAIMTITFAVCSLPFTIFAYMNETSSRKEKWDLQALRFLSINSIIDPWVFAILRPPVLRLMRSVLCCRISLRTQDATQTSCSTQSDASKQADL

Target: T1, human EP2 receptor (Homo sapiens, UniProt P43116)
T1 construct: cDNAs representing the complete open reading frames of the human EP2 and EP4 receptors; expressed in transfected cells
Assay: Scatchard analysis of specific [3H]PGE2 binding in the 293-S line overexpressing recombinant human EP2
Details: read-out: Kd for PGE2 (EP2); 293-S/EP2 line selected for compound screening
Excerpt: cDNAs representing the complete open reading frames of the human EP2 and EP4 receptors are generated by reverse transcriptase polymerase chain reaction using oligonucleotide primers based on published sequences (1, 2) and RNA from primary human kidney cells (EP2) or primary human lung cells (EP4) as templates. cDNAs are cloned into the multiple cloning site of pcDNA3 (Invitrogen Corporation, 3985B Sorrento Valley Blvd., San Diego, Calif. 92121) and used to transfect 293-S human embryonic kidney cells via calcium phosphate co-precipitation. […] Constituitive expression of both receptors in parental 293-S cells is negligible. Cells are maintained in RPMI supplemented with fetal bovine serum (10% final) and G418 (700 ug/ml final).

Kd: 12 nM
Structure (SMILES): CCCCC[C@H](O)/C=C/[C@H]1[C@H](O)CC(=O)[C@@H]1C/C=C\CCCC(=O)O [PGE2]
